Assay results reported in ChEMBL document CHEMBL4007420, “Structural Optimization and Pharmacological Evaluation of Inhibitors Targeting Dual-Specificity Tyrosine Phosphorylation-Regulated Kinases (DYRK) and CDC-like kinases (CLK) in Glioblastoma” (J Med Chem, 2017).

Tests used:
Homo sapiens [1] = species on record: Homo sapiens; experiment: Ratio of IC50 for DYRK2 (unknown origin) using woodtide as substrate to IC50 for DYRK1B (unknown origin) using woodtide as substrate
Homo sapiens [2] = species on record: Homo sapiens; experiment: Ratio of IC50 for DYRK2 (unknown origin) using woodtide as substrate to IC50 for CLK1 (unknown origin) using KKGRSRSRSRSRSR as substrate
Homo sapiens [3] = species on record: Homo sapiens; experiment: Ratio of IC50 for DYRK1B (unknown origin) using woodtide as substrate to IC50 for DYRK1A (unknown origin) using woodtide as substrate
Homo sapiens [4] = species on record: Homo sapiens; experiment: Ratio of IC50 for CLK1 (unknown origin) using KKGRSRSRSRSRSR as substrate to IC50 for DYRK1A (unknown origin) using woodtide as substrate
Homo sapiens [5] = species on record: Homo sapiens; experiment: Ratio of IC50 for DYRK2 (unknown origin) using woodtide as substrate to IC50 for DYRK1A (unknown origin) using woodtide as substrate

Ratio IC50 (Homo sapiens [1])	Ratio IC50 (Homo sapiens [2])	Ratio IC50 (Homo sapiens [3])	Ratio IC50 (Homo sapiens [4])	Ratio IC50 (Homo sapiens [5])	SMILES
10	10	–	–	–	NC(=O)Nc1ccc(-c2cnc3[nH]cc(-c4ccc(O)cc4)c3c2)cc1
10	10	–	–	–	Nc1ccc(-c2cnc3[nH]cc(-c4ccc(O)cc4)c3c2)cc1
–	–	5	5	80	CC(=O)Nc1ccc(-c2cnc3[nH]cc(-c4ccc(O)cc4)c3c2)cc1
